These sequences were tested against Human Thrombin (Homo sapiens, UniProt P00734). Settings: control FLAG epitope-thrombin substrate sequence.
Procedure: The values represent ((OD450 nm reading after incubation with thrombin)/(OD450 nm reading after incubation without thrombin)) expressed as a percentage. 100% indicates complete protection from thrombin cleavage.
Recovered DNA from the fifth round of selection was amplified using PCR, purified and digested with NotI and NcoI. The DNA was then ligated into a similarly digested M13 gpIII phagemid vector and transformed into E. coli XL-1 blue cells, and plated on 2% glucose, 2×TY, 100 μg/ml ampicillin plates. Individual colonies were grown for the production of phage particles as previously described (Odegrip et al Proc. Natl. Acad. Sci USA 101 2806-2810 (2004)). NUNC Maxisorp plates were coated with 100 ng/well of anti-FLAG M2 antibody in PBS overnight at 4° C. ELISA assays were performed with bound phage being incubated for 1 hour in 2% BSA in PBS, +/−Human Thrombin (0.1 unit/ml). The assay was developed with SureBlue TMB peroxidase substrate (Insight Biotechnology, Middlesex, UK) and read at 450 nm.
In the case of “DYKDDDRSGGSGLGPRSG [SEQID 002, reference compound]”, the “anti-FLAG binding after one hours incubation in thrombin” value is reported as “no anti-FLAG binding”.

Same assay, conditions: fifth round selected peptides; 1 hour incubation +/- Human Thrombin 0.1 unit/ml; anti-FLAG ELISA OD450
With AAPDETTTPNRD [SEQID 014] the Thrombin resistant was “resistant”. In the case of ATGPIPHTPQGS [SEQID 023], the Thrombin resistant is reported as “resistant”. For DRSRASTRRDRH [SEQID 021], the Thrombin resistant was “resistant”. In the case of ESPRPPARPPND [SEQID 005], the Thrombin resistant is reported as “resistant”. For GRPATAPCTHGN [SEQID 020], the Thrombin resistant was “resistant”. With HDGRPPQHHHPH [SEQID 016] the Thrombin resistant was “resistant”. With HNVNPNQPHNDT [SEQID 009] the Thrombin resistant was “resistant”. With HPHHPSNQAPTD [SEQID 013] the Thrombin resistant was “resistant”. HYPPPSTPYTTD [SEQID 003] was tested, and the Thrombin resistant was “resistant”. In the case of MTMGTRPTRDTH [SEQID 017], the Thrombin resistant is reported as “resistant”. NHPTTNDGPSVK [SEQID 006] was tested, and the Thrombin resistant was “resistant”. With PATNPHTNSNAN [SEQID 008] the Thrombin resistant was “resistant”. With PNRNFQQNTNHN [SEQID 007] the Thrombin resistant was “resistant”. In the case of PTMTRPSNTEAE [SEQID 011], the Thrombin resistant is reported as “resistant”. With PTPSHSTHRDPE [SEQID 012] the Thrombin resistant was “resistant”. In the case of PTPTNPPQSAAD [SEQID 004], the Thrombin resistant is reported as “resistant”. With QKPNHDTERELD [SEQID 033] the Thrombin resistant was “resistant”. With QPHNHPRPIKQH [SEQID 026] the Thrombin resistant was “resistant”. RAGELGAPADPD [SEQID 032] was tested, and the Thrombin resistant was “resistant”. In the case of RFVSDHNITAAD [SEQID 025], the Thrombin resistant is reported as “resistant”. With SRHRTNAGETDH [SEQID 022] the Thrombin resistant was “resistant”. With TDCSHNPTDPCE [SEQID 031] the Thrombin resistant was “resistant”. With TDPPANDNAQPH [SEQID 024] the Thrombin resistant was “resistant”. In the case of TNFSKDEQPTPD [SEQID 019], the Thrombin resistant is reported as “resistant”. With VNFAATSSNDRD [SEQID 015] the Thrombin resistant was “resistant”. VNKQTTASQAHH [SEQID 018] was tested, and the Thrombin resistant was “resistant”. With VPTSTYAITDPT [SEQID 010] the Thrombin resistant was “resistant”.

Reference: patent US20110189164A1, “Peptide Stabilizer Compounds and Screening Method” (Isogenica Ltd, priority 2005, published 2011)
